Data published in patent US8779142B2, “Azabicyclo compound and salt thereof” (Taiho Pharmaceutical Co., Ltd., priority 2009, dated 2014).

Target: human HSP90 alpha protein (HSP90 N-terminal protein, amino acids 2-236) (Homo sapiens (Human), UniProt P07900)
Test: Measurement of HSP90-binding activity (AlphaScreen competitive assay, biotin-labeled geldanamycin)
Details: concentration inhibiting binding of biotin-labeled geldanamycin (40 nM) to purified HSP90 to 50% of control; read-out: HSP-binding activity IC50

| IC50 | SMILES |
| --- | --- |
| 360 nM | Cc1cn(-c2ccc(C(N)=O)c(S[C@H]3CC[C@H](O)CC3)c2)c2nccc(-c3cnc4ccccc4c3)c12 [Example 67, 2-(Trans-4-hydroxycyclohexylthio)-4-{3-methyl-4-(quinolin-3-yl)-1H-pyrrolo[2,3-b]pyridin-1-yl}benzamide] |
| 150 nM | CC(C)c1nn(-c2ccc(C(N)=O)c(N[C@H]3CC[C@H](O)CC3)c2)c2nccc(-c3cnc4ccccc4c3)c12 [Example 6, 2-(Trans-4-hydroxycyclohexylamino)-4-{3-isopropyl-4-(quinolin-3-yl)-1H-pyrazolo[3,4-b]pyridin-1-yl}benzamide] |
| 3010 nM | COc1ccc(-c2ccnc3c2c(C(C)C)nn3-c2ccc(C(N)=O)c(N[C@H]3CC[C@H](O)CC3)c2)cn1 [Example 18, 2-(Trans-4-hydroxycyclohexylamino)-4-{3-isopropyl-4-(6-methoxypyridin-3-yl)-1H-pyrazolo[3,4-b]pyridin-1-yl}benzamide] |
| 600 nM | Cc1cn(-c2ccc(C(N)=O)c(N[C@H]3CC[C@H](N)CC3)c2)c2nccc(-c3cnc4ccccc4c3)c12 [Example 61, 2-(Trans-4-aminocyclohexylamino)-4-{3-methyl-4-(quinolin-3-yl)-1H-pyrrolo[2,3-b]pyridin-1-yl}benzamide] |
